From US20080058411A1, “Methods For Treating Resistant Or Refractory Tumors” (GPC Biotech AG, priority 2004, published 2008)

Test system: NCI-Adr resistant subline
Experiment: SRB cytotoxicity assay, P-glycoprotein expressing NCI-Adr resistant subline, with and without verapamil
Type: cell-based
Conditions: ratio of the means of the resistant cells compared to the sensitive cells

SMILES | RR (relative resistance) NCI-Adr resistant −verapamil vs +verapamil
N.N.[Cl][Pt][Cl] [Cisplatin, cisplatin] | 0.93
CC(=O)O[C@@]12CO[C@@H]1C[C@H](O)[C@@]1(C)C(=O)[C@H](O)C3=C(C)[C@@H](OC(=O)[C@H](O)[C@@H](NC(=O)OC(C)(C)C)c4ccccc4)C[C@@](O)([C@@H](OC(=O)c4ccccc4)[C@H]21)C3(C)C [Taxotere, N-debenzoyl-N-tert-butoxycarbonyl-10-deacetyl paclitaxel] | 33
